Most compounds without a hit are left out; they make up all but 3.7% or so of the library.
A549 viability: kills or reduces viability of A549 cells in Nrf2 counter-screen; A549 ARE-Fluc cells, CellTiter-Fluor viability, 18-24 h; Potency, µM (series often up to 46 µM), most hits filed as inhibitors; 390,000 compounds, 0.16% hits
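Cytotoxicity counterscreen: CellTiter-Fluor fluorescence was measured in A549 ARE_Fluc cells after 18-24 h of compound exposure in a concentration series. The subsequent BugLite luminescent read reports ARE-luciferase activity.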
miR-21 FLuc: raises the signal of a miR-21 reporter | HeLa miR-21 FLuc reporter, luciferase, 48 h | Potency, µM (doses to about 38.3 µM) | 340,000 tested, under 10 active | AID 2288; active = well fitted rising curve with a large enough effect; inconclusive = small, poorly fitted or top-dose-only effect; inactive = no such curve, though single readings can be large or run the other way;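 note: miR-21 action dims this reporter so a rising signal means less miR-21 action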
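HeLa cells endogenously expressing miR-21, stably carrying CMV-driven firefly luciferase with a downstream miR-21 binding site, 2000 cells/well. Titrations up to approximately 40 uM, 48 hours; luciferase luminescence read.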
Nrf2 block: inhibitors of Nrf2 signaling | 360,000 compounds, 2.1% hits | A549 ARE-Fluc reporter, luciferase luminescence, 18-24 h | Potency, µM (highest dose often 46 µM), most hits filed as inhibitors | AID 504444; note: nearly all actives have a fitted effect of over 60% in size
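Cells were seeded and rested 2 h, then exposed to compounds for 18-24 h. CellTiter-Fluor was read first as a viability measure. BugLite was added 15 min before the final luminescent read of ARE-luciferase activity in A549 cells.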
ClpP mod: qHTS Assay for Activators of ClpP. purified B. subtilis ClpP, FRET peptide cleavage, 20 min. Potency, µM (highest dose often 57.5 µM). 340,000 compounds, 1.9% hits. AID 651965, 2013; active = well fitted falling curve with a large enough effect; inconclusive = small, poorly fitted or top-dose-only effect; inactive = no such curve, though single readings can be large or run the other way; note: the source files actives as falling curves though it sought activators and does not explain the sign; nearly all actives have a fitted effect of over 65% in size
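FRET quenching reversal measured ClpP activation: 10 microg/mL B. subtilis ClpP at pH 8 with the FRET-FV decapeptide, read at 430 nm after 320 nm excitation. The 20-min minus 0-min signal was scaled between DMSO/no-enzyme wells and ADEP (5.8 microM final).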
Nrf2 ARE act: Nrf2 pathway activation; AREc32 ARE-luciferase reporter (MCF7-derived line), luminescence, 24 h; Potency, µM (titrated, usually from 46.1 µM), hits mostly activators; 410,000 compounds, 0.31% hits; note: nearly all actives have a fitted effect of over 65% in size
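Quantitative high-throughput format: AREc32 reporter cells, 1000 per well, received compound by pin transfer and were incubated 24 hr at 37 deg C, 5% CO2, before Steady-Glo luminescence detection.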
TCR activator: activators of T cell receptors; Potency, µM (highest dose often 9.22 µM), most hits filed as activators; 330,000 tested, under 10 active; AID 504894; primary human leukocytes, anti-CD3, IL-2 HTRF, 48 h
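Human primary leukocytes + a-CD3 beads + cpd, 48 hr; IL-2 in supernatant by HTRF (ex 320nm / em 665nm). No co-stimulatory signal supplied.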
A number is an active result; – = inactive; ? = inconclusive; · = not tested or not shown. Unless noted, calls come from the whole dose curve; as a rule, active = well fitted curve in the direction sought with a large enough effect; inconclusive = small, poorly fitted or top-dose-only effect, or another doubt; inactive = no such curve, though single readings can be large; an effect the other way counts as inactive or inconclusive.

SMILES	A549 viability	miR-21 FLuc	Nrf2 block	ClpP mod	Nrf2 ARE act	TCR activator
CCOc1ccc(OCC)c(NC(=O)CCc2nc3cccnc3n2-c2ccccc2)c1	–	–	–	–	–	·
CCOC(=O)C1(Cc2cccc(OC)c2)CCCN(C(=O)c2cc(C)on2)C1 (stereo unspecified)	–	–	?	–	–	–
CCCCn1c(NC(=O)c2ccco2)c(S(=O)(=O)c2ccc(C)cc2)c2nc3ccccc3nc21	–	–	–	·	–	–
CCCCn1c(NS(=O)(=O)c2ccccc2)c(S(=O)(=O)c2ccc(C)cc2)c2nc3ccccc3nc21	–	–	–	16µM	–	–
Cn1c(=O)c2nc(-c3ccccc3)oc2c2ccccc21	–	–	–	11µM	?	·
CCCCCc1nc2c(=O)n(C)c3ccccc3c2o1	–	–	–	–	–	·
O=C(NCC[C@@H]1C[C@@H]2C=C[C@H]1C2)c1cc(COc2ccc(F)cc2F)on1	–	–	?	–	–	–
O=C(Cn1ncc2c([nH]c3ccccc32)c1=O)N1CCOCC1	–	–	–	–	–	–
CCOc1ccc(C(=O)N/N=C/c2ccc(-c3ccc(S(=O)(=O)Nc4ncccn4)cc3)o2)cc1	–	–	·	28µM	–	–
Cc1ccc(OCCSc2nc3ccccc3n2CCC(=O)O)cc1C	–	–	?	–	–	·
CN(NS(=O)(=O)c1ccc(Br)cc1)c1nc(C(F)(F)F)nc2ccccc12	?	–	21µM	·	–	–
CN(N)c1nc(C(F)(F)F)nc2ccccc12	–	–	–	·	–	–
O=C(Nc1ccc(N2CCN(C(=O)c3ccccc3F)CC2)cc1)c1cncc(Br)c1	–	–	?	–	–	–
O=C1CSC(=S)N1Cc1cccnc1	?	?	–	–	8.9µM	–
COC(=O)C1=CN(C(C)C)C=C(C(=O)OC)C1c1cc2c(cc1Br)OCO2	–	–	–	32µM	–	–
CCCCCN(C(=O)CCC(=O)OCC(=O)N1CCCCC1C)c1c(N)n(CCCC)c(=O)[nH]c1=O (stereo unspecified)	–	–	–	–	–	–
O=C(Nc1ccc(F)cc1F)Nc1csc2ccccc12	–	–	?	11µM	–	–
O=C(Nc1ccc(F)c(Cl)c1)Nc1csc2ccccc12	?	–	?	·	–	–
O=S(=O)(c1ccc2nc(COc3ccc(Cl)cc3Cl)[nH]c2c1)N1CCOCC1	–	–	–	–	–	·
O=S(=O)(c1ccc2nc(SCc3ccc(Cl)cc3)[nH]c2c1)N1CCOCC1	–	–	23µM	–	–	–
COc1c(N)c2ccccc2[nH]c1=O	–	–	–	32µM	–	–
Cc1ccc2oc(C(=O)N3CCN(Cc4nccn4C)CC3)c(C)c2c1	–	–	–	–	–	–
O=Cc1sc(Nc2ccccc2)nc1Cl	–	–	–	–	14µM	–
O=C(c1ccc2n[nH]nc2c1)N1CCN(c2ccc(C(F)(F)F)cn2)CC1	–	·	15µM	–	–	–
O=C(c1ccccn1)N1CCN(c2ccc(C(F)(F)F)cn2)CC1	–	–	?	?	–	–
SMILES	A549 viability	miR-21 FLuc	Nrf2 block	ClpP mod	Nrf2 ARE act	TCR activator
Cc1ccc2c(c1)N=C(c1ccc(F)cc1)CO2	–	–	·	–	?	–
O=[N+]([O-])c1ccc(C2=Nc3cc(Cl)ccc3OC2)cc1	–	–	?	·	13µM	·
CN1C(=O)CSc2ccc(NC(=O)N3CCN(c4ccccn4)CC3)cc21	–	–	?	–	–	–
Cc1ccc(C)c(N2CCN(C(=O)Nc3ccc4c(c3)N(C)C(=O)CS4)CC2)c1	–	–	16µM	–	–	–
COc1ccc(CCN(C)C(=O)c2c(C)nn(-c3ccccc3)c2C)cc1OC	–	–	–	–	–	–
CC(C)N(C(=O)NC(=O)Nc1ccccn1)S(C)(=O)=O	–	–	–	·	–	–
Cc1ccc(NC(=O)NC(=O)N(C(C)C)S(C)(=O)=O)nc1	–	–	–	35µM	–	–
CC1CCCC(NC(=O)c2ccc3snnc3c2)C1C (stereo unspecified)	–	–	–	–	–	–
Cc1nn(C)c(C)c1CCC(=O)NC1CC(C)(C)Cc2c1cnn2-c1ccccc1 (stereo unspecified)	–	–	–	–	–	–
CN(C)c1ccc(-n2cc3c(=O)n(C)c(=O)n(C)c3c2)cc1	–	–	–	–	–	–
CCN(CC)c1ccc(-n2cc3c(=O)n(C)c(=O)n(C)c3c2)cc1	–	–	?	35µM	–	–
CCCCn1c(-c2nonc2N)nc2ccccc21	–	–	15µM	–	–	·
CCOC(=O)C1CCN(S(=O)(=O)c2ccc(-c3cc(C(F)(F)F)n(C)n3)s2)CC1	–	–	–	–	–	–
CCOC(=O)C1CCN(S(=O)(=O)c2ccc(-c3nc4ccccc4s3)s2)CC1	–	–	·	25µM	–	–
N/C(=N/OCc1cccc([N+](=O)[O-])c1)c1nonc1N	–	–	–	11µM	–	–
N/C(=N\OCc1ccccc1)c1nonc1N	–	–	–	–	–	–
c1ccc(-c2cnc(-c3ccccc3)nn2)cc1	–	·	–	–	2.8µM	–
c1ccc(-c2cnc(-c3ccccn3)nn2)cc1	–	·	?	–	?	–
NC(=O)COc1ccc(NC(=O)OCc2ccccc2)cc1	–	–	–	32µM	–	–
CCOc1ccc(NCc2cc3cc(OC)ccc3[nH]c2=O)cc1	–	–	26µM	–	–	–
COc1ccc2[nH]c(=O)c(CNc3ccc(C)cc3C)cc2c1	–	–	–	·	–	–
COc1ccc2[nH]c(=O)c(CNc3ccccc3)cc2c1	–	–	?	16µM	–	–
COc1ccc2[nH]c(=O)c(CNc3ccccc3C)cc2c1	–	–	–	·	–	–
Cc1ccc2[nH]c(=O)c(CNC(C)(C)C)cc2c1	–	–	?	14µM	–	–
COc1ccc2[nH]c(=O)c(CNc3cc(C)ccc3C)cc2c1	?	–	18µM	·	–	–
SMILES	A549 viability	miR-21 FLuc	Nrf2 block	ClpP mod	Nrf2 ARE act	TCR activator
COc1ccc2[nH]c(=O)c(CNc3ccccc3OC)cc2c1	–	–	–	·	–	–
O=C1c2ccccc2NC2(CCCCC2)N1N=C1CCCCC1	–	–	–	18µM	–	–
O=C1c2ccccc2NC2(CCCC2)N1O	–	–	·	–	–	–
COc1cccc(N2CC(C(=O)Nc3nnc(SCc4cccnc4)s3)CC2=O)c1 (stereo unspecified)	–	–	–	13µM	–	–
CCOC(=O)c1c(C)oc2nc(C)nc(NCCc3ccc(OCC)cc3)c12	–	–	23µM	–	–	·
COc1ccc(CC(=O)OCC(=O)N(C)C2CCS(=O)(=O)C2)cc1OC (stereo unspecified)	–	·	–	–	–	–
